# Antibody variant affinities, Ab-95 light chain, assay 2

Reference: Engelhart et al. 2022, doi:10.1038/s41597-022-01779-4. File: FLAb, binding data.

All variants were tested on one target, the spike HR2 peptide PDVDLGDISGINAS (SARS-CoV-2).

Parent: Ab-95, a human scFv built as VH, three GGGGS repeats, VL. Only the CDRs of the light chain vary.
VH: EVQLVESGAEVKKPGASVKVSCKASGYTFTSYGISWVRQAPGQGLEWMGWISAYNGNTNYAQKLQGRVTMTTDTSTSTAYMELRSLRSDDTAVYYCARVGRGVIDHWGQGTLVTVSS
VL: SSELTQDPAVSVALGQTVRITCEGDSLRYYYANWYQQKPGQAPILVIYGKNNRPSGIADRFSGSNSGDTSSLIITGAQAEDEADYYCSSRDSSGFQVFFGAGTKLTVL

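Phage display of a naive human antibody library on the peptide gave the parent. AAYL52 was designed without a model: most single CDR substitutions and a random sample of double and triple ones. The scFvs were displayed on barcoded MATa yeast, the peptide on MATalpha yeast. Pairs that bind mate more often; barcode pairs of the diploids are counted by sequencing. Scores were corrected for input abundance and mapped to Kd with protein pairs of known affinity run in the same pool. There are three technical replicates.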

Each variant is given by its three light chain CDRs, as the data file delimits them; those of the parent are EGDSLRYYYAN, GKNNRPS, SSRDSSGFQVF. Each Kd is an estimate from the mating assay, the geometric mean of the replicates in which the pair was seen; lower is stronger. Where no diploid with the target was found in any replicate, the entry reads "no signal": below detection, most likely a poor binder, though not proof of it.

| Kd | seen in | empty controls | CDR-L1 | CDR-L2 | CDR-L3 |
|---|---|---|---|---|---|
| no signal | 0/3 | 0/9 | EGDSLRYYYAN | GKNNRPS | SSRDSSGFMLF |
| no signal | 0/3 | 2/9 | EGDSLRYYYAN | RKNNRPS | SVRDSSHFQVF |
| 1.5 µM | 2/3 | 1/9 | EGDSLRMYYAN | GKNNRPS | SSRDSSGFQVR |
| 46 nM | 3/3 | 4/9 | EGDSLRYYYAN | GKNNRPT | SSTDSSGFQVF |
| 5.8 µM | 3/3 | 1/9 | EGDSLRYYYAN | GKNNNPS | SSRDWSPFQVF |
| 94 nM | 3/3 | 3/9 | EGDSLRTYYAN | GKNNRPS | SSRDYSGSQVF |
| no signal | 0/3 | 2/9 | EGDSLRYYYAN | GKNNRPS | LSSLSSGFQVF |
| 17 µM | 3/3 | 6/9 | EPDSLRYYYQN | GKNNRPS | SSRDSSAFQVF |
| no signal | 0/3 | 0/9 | EGDSLRYYYAN | GKNNMPY | SRRDSSGFQVF |
| 960 nM | 3/3 | 3/9 | EGDSLRIYHAN | GKNNRPS | SSRDISGFQVF |
| 150 nM | 3/3 | 3/9 | EGDSLRYYYAN | GNNNRPV | SSRDSAGFQVF |
| 3.4 µM | 3/3 | 3/9 | EGDSLRYYYAN | GKNNRPS | SSRDYSCFQVF |
| no signal | 0/3 | 3/9 | EGDSCRYYYRN | GKNNRPS | SSRDSLGFQVF |
| no signal | 0/3 | 0/9 | EGDSLRMYYAN | GKNNRNS | SSRDSSGFQLF |
| 56 µM | 1/3 | 3/9 | EGDSLRYYYAN | GKPNRPS | FSRDSSGNQVF |
| 11 µM | 2/3 | 2/9 | EGDSLRYYYAN | GKEKFPS | SSRDSSGFQVF |
| 6.2 µM | 3/3 | 7/9 | EGDSLRYYYAN | NKNNRPS | SSRDSSGFQVS |
| no signal | 0/3 | 1/9 | EGDSLRYYYAV | GKNNWPE | SSRDSSGFQVF |
| 360 nM | 1/3 | 1/9 | EGDSLRYYYAN | GGNNRPS | SSRDSWGFQVN |
| 3.6 µM | 1/3 | 1/9 | EGDSLRYYQAN | GKNNRNS | SSRLSSGFQVF |
| 490 nM | 3/3 | 0/9 | EGDSLRYDYAN | GKNDRPS | SSRDSSGFQEF |
| 670 nM | 3/3 | 3/9 | EGDSLRYYYAN | GKNNRPM | ASRTSSGFQVF |
| 58 µM | 2/3 | 1/9 | EGDSLRYYYAN | GKNNRPM | SYRDSWGFQVF |
| no signal | 0/3 | 0/9 | EGDLIRYYYAN | GKNNRPS | SSIDSSGFQVF |
| 6.8 µM | 2/3 | 3/9 | EGDSLRYYYAN | GYNNRPS | SPRDSSGFQVF |
| 96 µM | 1/3 | 2/9 | EGDILMYYYAN | GKNNRPS | SSRDSVGFQVF |
| 1.8 µM | 3/3 | 3/9 | EGDSLRYYYAN | GKNLRPQ | SSRDSSGFLVF |
| 2.1 µM | 1/3 | 2/9 | EADSLIYYYAN | GKNNLPS | SSRDSSGFQVF |
| 24 µM | 1/3 | 0/9 | EGDSLRYYIAN | GKNNRVS | SSRDSSGFQQF |
| 8.1 µM | 1/3 | 3/9 | EGDSPRRYYAN | VKNNRPS | SSRDSSGFQVF |
| 6.4 µM | 2/3 | 4/9 | EGDSLYYYKGN | GKNNRPS | SSRDSSGFQVF |
| 350 nM | 3/3 | 2/9 | EGDDWRYYYAN | GKNTRPS | SSRDSSGFQVF |
| no signal | 0/3 | 1/9 | EWDSLRYYYAN | GKNNRPY | GSRDSSGFQVF |
| 260 nM | 3/3 | 2/9 | EGDSLRYYTAN | GKNNRPS | SSRDSSCFQVL |
| 1.9 µM | 3/3 | 3/9 | EDDSLRYYYAN | GGNNRPS | SSRDSSGFQVF |
| 48 µM | 2/3 | 4/9 | EGDSLRYYYIN | GKNNRPS | SSRDNSIFQVF |
| 42 µM | 1/3 | 3/9 | EGDSLYYYYAA | GKNNRPS | SSRDSSGLQVF |
| no signal | 0/3 | 1/9 | EGDSLRYYYAP | GKNKRMS | SSRDSSGFQVF |
| 9.7 µM | 3/3 | 2/9 | EGDSLWYYYAN | GLNNRPS | SSRDSSGFYVF |
| 18 µM | 2/3 | 2/9 | EGDSLRYYYAN | GKNKRPS | SSRDSIQFQVF |
| no signal | 0/3 | 0/9 | EGDSLRCYYAN | GKNNRPS | SSLDSSRFQVF |
| 450 nM | 3/3 | 2/9 | EGDSLRYLYAN | GDNNRPS | SHRDSSGFQVF |
| 240 nM | 3/3 | 5/9 | EGDSLRYYYAN | GKNNRPS | SQRDSSGEQVV |
| 15 µM | 2/3 | 6/9 | EEDSLRYYYAH | GKNNRPS | SSRDMSGFQVF |
| 2.1 µM | 3/3 | 3/9 | EGDSLRYYYAN | SKENRPS | SNRDSSGFQVF |
| no signal | 0/3 | 0/9 | EGAFLRYYYAN | GKNNRPS | SSMDSSGFQVF |
| 2.5 µM | 2/3 | 1/9 | EGTCLRYYYAN | GKNNRPS | SSRDSSNFQVF |
| 8.1 µM | 2/3 | 3/9 | EGDSLRYYYIN | GKNGRPS | SVRDSSGFQVF |
| 8.2 µM | 3/3 | 5/9 | EMDSLRYYYAN | GKNNRPP | SSRDSRGFQVF |
| 530 nM | 3/3 | 3/9 | EGDHLRYYYAN | GKNNRGS | SSRDSSGFQVF |
| no signal | 0/3 | 2/9 | EGDSVRYYYAN | GKNNTPS | GSRDSSGFQVF |
| 2.3 µM | 1/3 | 1/9 | LGDSLRYYYAN | GKNNRRS | SSRDNSGFQVF |
| 14 nM | 3/3 | 1/9 | LGDSLRYYDAN | GKNNRPS | SSRDSSGFNVF |
| 2.4 µM | 3/3 | 4/9 | EGDSLCYYYAN | GENNRPS | SSRDSSSFQVF |
| 360 nM | 3/3 | 3/9 | EGDSLRYYYAN | GKNNRPW | SSRDSSGFSVW |
| 99 nM | 3/3 | 2/9 | EGDSLRYWYAN | GKNNRPS | SWRDSSGFQWF |
| 19 µM | 2/3 | 1/9 | EGDSLRYYYAN | GFNNRPS | SSRDSSGFQEH |
| 3.5 µM | 2/3 | 2/9 | HGDSLRYYYAN | GKFNRPS | MSRDSSGFQVF |
| 390 nM | 3/3 | 2/9 | EGDSLEYPRAN | GKNNRPS | SSRDSSGFQVF |
| 31 nM | 3/3 | 7/9 | EGDSLRRYQAN | GVNNRPS | SSRDSSGFQVF |
| 96 nM | 3/3 | 0/9 | EGDSLRYYYAN | GDTNRPS | SARDSSGFQVF |
| no signal | 0/3 | 1/9 | EGDSLNYYYAN | GKWNRPS | SSRDSSGFQVF |
| no signal | 0/3 | 2/9 | EGMSLRYLYAN | GKNNRPS | SSRDSPGFQVF |
| 71 µM | 1/3 | 3/9 | EHDSLRYYYAN | GKNGRPS | SSMDSSGFQVF |
| 31 µM | 1/3 | 4/9 | EGDSLRYYYAN | GKNQRPS | SSHDFSGFQVF |
| no signal | 0/3 | 3/9 | EGDSLRYYYAN | GKNNVPS | SSRDNIGFQVF |
| 480 nM | 3/3 | 8/9 | EGDSLRYFYAG | GKNNRMS | SSRDSSGFQVF |
| 780 nM | 1/3 | 0/9 | EGDSLRYYYDN | GKNNRPS | SSRTSSGNQVF |
| 27 µM | 1/3 | 1/9 | ESDSLRYYYAN | GKKNRPS | SSRRSSGFQVF |
| 440 nM | 3/3 | 5/9 | EGDSLRYYYAN | GKNNRPS | SSRDHSGLQGF |
| 220 nM | 3/3 | 0/9 | AGDSLRYYYAN | GKNNNPS | SSRDRSGFQVF |
| no signal | 0/3 | 0/9 | EKDSLRYYYYN | GWNNRPS | SSRDSSGFQVF |
| 20 nM | 3/3 | 0/9 | EGDSLRYYGAN | GKNNRPS | SDRDSSGFQVK |
| no signal | 0/3 | 0/9 | EGDTLRYYYAN | GKNNRPS | SSMDSSGTQVF |
| 28 nM | 3/3 | 5/9 | EGDSLLYYNAN | GKNNRPS | SSRDSSFFQVF |
| 880 nM | 3/3 | 6/9 | EGDSLRYYYAN | GKNNRPS | SSEDSSGFLVF |
| 760 nM | 3/3 | 2/9 | EGDSLRYYYNN | GKNNRPA | SSRDSSGFTVF |
| no signal | 0/3 | 3/9 | EGDSSRYYYAN | GKKNLPS | SSRDSSGFQVF |

Excerpt, the final 7 entries:

{"CDR-L1": "EKDSLRYYYYN", "CDR-L2": "GWNNRPS", "CDR-L3": "SSRDSSGFQVF", "Kd": "no signal", "seen in": "0/3", "empty controls": "0/9"}
{"CDR-L1": "EGDSLRYYGAN", "CDR-L2": "GKNNRPS", "CDR-L3": "SDRDSSGFQVK", "Kd": "20 nM", "seen in": "3/3", "empty controls": "0/9"}
{"CDR-L1": "EGDTLRYYYAN", "CDR-L2": "GKNNRPS", "CDR-L3": "SSMDSSGTQVF", "Kd": "no signal", "seen in": "0/3", "empty controls": "0/9"}
{"CDR-L1": "EGDSLLYYNAN", "CDR-L2": "GKNNRPS", "CDR-L3": "SSRDSSFFQVF", "Kd": "28 nM", "seen in": "3/3", "empty controls": "5/9"}
{"CDR-L1": "EGDSLRYYYAN", "CDR-L2": "GKNNRPS", "CDR-L3": "SSEDSSGFLVF", "Kd": "880 nM", "seen in": "3/3", "empty controls": "6/9"}
{"CDR-L1": "EGDSLRYYYNN", "CDR-L2": "GKNNRPA", "CDR-L3": "SSRDSSGFTVF", "Kd": "760 nM", "seen in": "3/3", "empty controls": "2/9"}
{"CDR-L1": "EGDSSRYYYAN", "CDR-L2": "GKKNLPS", "CDR-L3": "SSRDSSGFQVF", "Kd": "no signal", "seen in": "0/3", "empty controls": "3/9"}

As a blank, each scFv also met three strains without target: over library AAYL52, 28% of these pairings were detected, typically at 8.2 µM and seldom below 800 nM. For each scFv, signals with the empty controls are counted beside the result. For reference, the parent read 200 nM as the reference entry and 180 nM as a member of this library.